Publication PMC13626732

Target: zebrafish Arpin (recombinantly expressed, SEC and AUC) (zebrafish) (UniProt Q1LWJ6)
Assay: SEC + AUC; recombinant Arpin in solution; monomer to dimer, reversible interconversion

stoichiometry N: 2
Substance: zebrafish Arpin (recombinantly expressed, SEC and AUC) (from UniProt Q1LWJ6 1-226) (natural protein)
